What was measured:
recombinant human TNF [1] = target: T1, recombinant human TNF (human, UniProt P01375 77-233); assay: competition ELISA: antibody preincubated with soluble TNF, then on TNF-coated plates
T1 construct: Bought (Cell Sciences); also called rhTNF; hTNF

By UniProt entry, the sequences of proteins in these tests, tags left out. Residues count along the entry.
UniProt P01375, 77-233: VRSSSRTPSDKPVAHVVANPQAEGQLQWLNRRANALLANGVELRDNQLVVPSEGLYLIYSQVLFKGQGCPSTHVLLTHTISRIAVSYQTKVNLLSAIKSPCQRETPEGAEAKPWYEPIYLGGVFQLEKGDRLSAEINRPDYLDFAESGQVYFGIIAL

recombinant human TNF [2] = target: T1, recombinant human TNF; assay: table head: EC50 in TNF ELISA; the text that introduces the table speaks of the L929 neutralization assay

B1: infliximab (antibody, V domains shown)
VH: EVKLEESGGGLVQPGGSMKLSCVASGFIFSNHWMNWVRQSPEKGLEWVAEIRSKSINSATHYAESVKGRFTISRDDSKSAVYLQMTDLRTEDTGVYYCSRNYYGSTYDYWGQGTTLTVSS
VL: DILLTQSPAILSVSPGERVSFSCRASQFVGSSIHWYQQRTNGSPRLLIKYASESMSGIPSRFSGSGSGTDFTLSINTVESEDIADYYCQQSHSWPFTFGSGTNLEVKR
With B1 the Kd (recombinant human TNF [1]) was 0.2 nM and the EC50 (recombinant human TNF [2]) was 0.076 µg/mL.

Reference: patent US20130058943A1 (published 2013)
